The values that follow are results of earlier work, collected in US10301355B2, “Method of using pharmaceutical compositions comprising selective peptide-based agonists of melanocortin 1 receptor” (University of Cincinnati, priority 2012, dated 2019).

For the data set the following is noted: caused by activation of MC3R and MC4R; cited from earlier work.

For the substance “melanotan II [MT-II, reference compound]”, the off-target effects entry is “sexual arousal and spontaneous erections lasting for 1-5 hours, nausea, grade II somnolence, fatigue, stretching, yawning, and loss of appetite”.
